By UniProt entry, the sequences of proteins in these tests, tags left out.
UniProt P04049, whole entry Y340E/Y341E: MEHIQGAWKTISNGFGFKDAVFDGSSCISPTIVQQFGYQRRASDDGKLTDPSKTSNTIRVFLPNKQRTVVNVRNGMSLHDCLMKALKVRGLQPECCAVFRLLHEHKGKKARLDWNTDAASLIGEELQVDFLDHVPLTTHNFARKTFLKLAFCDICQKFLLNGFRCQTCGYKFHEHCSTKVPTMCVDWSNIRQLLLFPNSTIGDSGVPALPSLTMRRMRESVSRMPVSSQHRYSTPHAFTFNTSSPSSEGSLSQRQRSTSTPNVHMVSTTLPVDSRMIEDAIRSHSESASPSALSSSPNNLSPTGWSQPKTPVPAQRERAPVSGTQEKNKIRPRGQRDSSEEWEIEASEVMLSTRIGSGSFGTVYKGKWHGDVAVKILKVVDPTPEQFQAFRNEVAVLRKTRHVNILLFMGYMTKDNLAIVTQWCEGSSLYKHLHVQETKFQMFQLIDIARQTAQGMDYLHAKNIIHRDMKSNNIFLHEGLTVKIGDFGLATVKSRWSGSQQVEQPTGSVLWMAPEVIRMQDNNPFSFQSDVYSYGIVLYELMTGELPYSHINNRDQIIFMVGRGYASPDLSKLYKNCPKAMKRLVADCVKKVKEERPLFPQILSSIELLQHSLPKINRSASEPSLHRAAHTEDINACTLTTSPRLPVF

For the first assay, the target named is C-Raf FL (full-length C-Raf protein, Y340E and Y341E activating mutations) (Homo sapiens (Human), UniProt P04049, Y340E/Y341E). The class given is biochemical. The note with it: AlphaScreen, 60 min pre-incubation, 1 hour reaction; read-out: c-Raf FL IC-50.
Consider `CNCCN(C)c1cc(C(=O)Nc2ccc(C)c(-c3cc(N4CCOCC4)c(=O)n(C)c3)c2)ccn1` [Example 457, 2-(methyl(2-(methylamino)ethyl)amino)-N-(4-methyl-3-(1-methyl-5-morpholino-6-oxo-1,6-dihydropyridin-3-yl)phenyl)isonicotinamide], for which the IC50 stood at 6.3 nM.
Still for that read-out and setting: then `CCC(F)(F)c1cc(C(=O)Nc2cnc(C)c(-c3cc(N4CCOCC4)n4nccc4n3)c2)ccn1` [Example 800, 2-(1,1-difluoropropyl)-N-(6-methyl-5-(7-morpholinopyrazolo[1,5-a]pyrimidin-5-yl)pyridin-3-yl)isonicotinamide], with 0.8 nM.
The same measure, in the same setting: the value for `CCN(C)c1cc(C(=O)Nc2ccc(C)c(-c3cc(N4CCOCC4)c(=O)n(C)c3)c2)ccn1` [Example 453, 2-(ethyl(methyl)amino)-N-(4-methyl-3-(1-methyl-5-morpholino-6-oxo-1,6-dihydropyridin-3-yl)phenyl)isonicotinamide] was 1.1 nM; that for `Cc1ccc(NC(=O)c2ccccc2)cc1-c1cc(N2CCOCC2)n(C)c(=O)c1` [Example 473, N-(4-methyl-3-(1-methyl-6-morpholino-2-oxo-1,2-dihydropyridin-4-yl)phenyl)benzamide] was 3.7 nM; that for `CCNc1nc(-c2cc(NC(=O)c3ccnc(C(C)(C)O)c3)ccc2C)cc(N2CCOCC2)n1` [Example 705, N-(3-(2-(ethylamino)-6-morpholinopyrimidin-4-yl)-4-methylphenyl)-2-(2-hydroxypropan-2-yl)isonicotinamide] was 1.4 nM.
Same read-out and setting: the value for `Cc1ccc(NC(=O)c2cccc(C(C)(C)S(C)(=O)=O)c2)cc1-c1cc(N2CCOCC2)n(C)c(=O)c1` [Example 494, N-(4-methyl-3-(1-methyl-6-morpholino-2-oxo-1,2-dihydropyridin-4-yl)phenyl)-3-(2-(methylsulfonyl)propan-2-yl)benzamide] was 3.7 nM.
Regarding `CCOc1nnc(-c2cc(NC(=O)c3ccc(CNC)c(C(F)(F)F)c3)ccc2C)cc1N1CCOCC1` [Example 574, N-(3-(6-ethoxy-5-morpholinopyridazin-3-yl)-4-methylphenyl)-4-((methylamino)methyl)-3-(trifluoromethyl)benzamide], the IC50 is 0.8 nM.
On to `Cc1ccc(NC(=O)c2ccnc(N3CCC3)c2)cc1-c1cc(N2CCOCC2)c(=O)n(C)c1` [Example 454, 2-(azetidin-1-yl)-N-(4-methyl-3-(1-methyl-5-morpholino-6-oxo-1,6-dihydropyridin-3-yl)phenyl)isonicotinamide], for which the IC50 came out at 0.5 nM.
Same read-out and setting: the value for `Cc1ccc(C(=O)Nc2cccc(C(C)(C)C#N)c2)cc1-c1cc(N2CCOCC2)n(C)c(=O)c1` [Example 515, N-(3-(2-cyanopropan-2-yl)phenyl)-4-methyl-3-(1-methyl-6-morpholino-2-oxo-1,2-dihydropyridin-4-yl)benzamide] was 1.1 nM.
The same measure, in the same setting: then `Cc1ncc(NC(=O)c2ccnc(C(C)(F)F)c2)cc1-c1cc(N2CCOCC2)c(=O)n(C)n1` [Example 678, 2-(1,1-difluoroethyl)-N-(6-methyl-5-(1-methyl-5-morpholino-6-oxo-1,6-dihydropyridazin-3-yl)pyridin-3-yl)isonicotinamide], with 2.1 nM.

The same assay, now with this note: AlphaScreen, 60 min pre-incubation, reaction 1 hour at room temperature; read-out: c-Raf FL IC-50.
Consider `CCC(F)(F)c1cc(C(=O)Nc2cnc(C)c(-c3cc(N4CCOCC4)c(S(C)(=O)=O)nn3)c2)ccn1` [Example 925, 2-(1,1-difluoropropyl)-N-(6-methyl-5-(6-(methylsulfonyl)-5-morpholinopyridazin-3-yl)pyridin-3-yl)isonicotinamide], for which the IC50 came to 2.23 nM.
Still for that read-out and setting: the value for `Cc1ncc(NC(=O)c2cccc(C(C)(C)S(C)(=O)=O)c2)cc1-c1cc(N2CCOCC2)nc(N2CC(O)C2)c1` [Example 1091, N-(2′-(3-hydroxyazetidin-1-yl)-2-methyl-6′-morpholino-[3,4′-bipyridin]-5-yl)-3-(2-(methylsulfonyl)propan-2-yl)benzamide] was 295 nM; that for `Cc1ccc(NC(=O)c2cncc(C(F)(F)F)c2)cc1-c1cc(N2CCOCC2)c(=O)n(C)c1` [Example 904, N-(4-methyl-3-(1-methyl-5-morpholino-6-oxo-1,6-dihydropyridin-3-yl)phenyl)-5-(trifluoromethyl)nicotinamide] was 0.47 nM; that for `Cc1ccc(NC(=O)c2ccnc(C(C)(C)O)c2)cc1-c1cnc(OC(C)C)c(N2CCOCC2)c1` [Example 947, 2-(2-hydroxypropan-2-yl)-N-(3-(6-isopropoxy-5-morpholinopyridin-3-yl)-4-methylphenyl)isonicotinamide] was 0.61 nM.
`Cc1ncc(NC(=O)c2ccnc(C(C)(C)C#N)c2)cc1-c1cc(N2CCOCC2)c2nccn2c1` [Example 881, 2-(2-cyanopropan-2-yl)-N-(6-methyl-5-(8-morpholinoimidazo[1,2-a]pyridin-6-yl)pyridin-3-yl)isonicotinamide]: the IC50 came out at 5.7 nM.
As to `Cc1ncc(NC(=O)c2ccnc(C(C)(C)C#N)c2)cc1-c1cc(NCCO)nc(N2CCOCC2)c1` [Example 1042, 2-(2-cyanopropan-2-yl)-N-(2′-((2-hydroxyethyl)amino)-2-methyl-6′-morpholino-[3,4′-bipyridin]-5-yl)isonicotinamide], the IC50 worked out at 5.04 nM.
On the same count and under the same terms, the value for `Cc1ccc(NC(=O)c2ccnc(C(F)(F)F)c2)cc1-c1cc(N2CCOCC2)nc(NCCO)c1F` [Example 1006, N-(3-(3-fluoro-2-((2-hydroxyethyl)amino)-6-morpholinopyridin-4-yl)-4-methylphenyl)-2-(trifluoromethyl)isonicotinamide] was 1.14 nM; that for `Cc1ncc(NC(=O)c2cc(C(C)(C)F)ccn2)cc1-c1cnc(OCCO)c(N2CCOCC2)c1` [Example 971, 4-(2-fluoropropan-2-yl)-N-(6′-(2-hydroxyethoxy)-2-methyl-5-morpholino-[3,3′-bipyridin]-5-yl)picolinamide] was 2.55 nM.
The same measure, in the same setting: the value for `Cc1ccc(NC(=O)c2ccnc(C(C)(F)F)c2)cc1-c1cc(NC[C@@H](C)O)nc(N2CCOCC2)n1` [Example 1024] was 1.04 nM; that for `Cc1ccc(NC(=O)c2ccnc(C(C)(C)O)c2)cc1-c1cc(NCCO)nc(N2CCOCC2)c1F` [Example 1010, N-(3-(3-fluoro-6-((2-hydroxyethyl)amino)-2-morpholinopyridin-4-yl)-4-methylphenyl)-2-(2-hydroxypropan-2-yl)isonicotinamide] was 4.47 nM; that for `Cc1ncc(NC(=O)c2cncc(C(F)(F)F)c2)cc1-c1cnc(OC(C)C)c(N2CCOCC2)c1` [Example 960, N-(6′-isopropoxy-2-methyl-5′-morpholino-[3,3′-bipyridin]-5-yl)-5-(trifluoromethyl)nicotinamide] was 1.18 nM.

The same assay, now with this note: Table 2; AlphaScreen, 1 hour reaction; read-out: c-Raf FL IC-50.
With `Cc1ccc(NC(=O)c2cccc(C(F)(F)F)c2)cc1-c1cc(-c2cnn(C)c2)nc(N2CCOCC2)c1` [Example 113, N-(4-methyl-3-(2-(1-methyl-1H-pyrazol-4-yl)-6-morpholinopyridin-4-yl)-3-phenyl)-3-(trifluoromethyl)benzamide], the IC50 amounted to 0.5 nM.
Consider `COc1ncc(-c2cc(NC(=O)c3ccnc(C(C)(F)F)c3)cnc2Cl)cc1N1CCOCC1` [Example 261, N-(2-chloro-6′-methoxy-5′-morpholino-[3,3′-bipyridin]-5-yl)-2-(1,1-difluoroethyl)isonicotinamide], for which the IC50 was 0.5 nM.
For `Cc1ccc(C(=O)Nc2cccc(C(F)(F)F)c2)cc1-c1cc(N2CCOCC2)c(=O)n(C)c1` [Example 137, 4-methyl-3-(1-methyl-5-morpholino-6-oxo-1,6-dihydropyridin-3-yl)-N-(3-(trifluoromethyl)phenyl)benzamide], the IC50 came to 0.7 nM.
On the same count and under the same terms, the value for `Cc1ccc(NC(=O)c2cccc(C(F)(F)F)c2)cc1-c1cc(N2CCCOCC2)nc(N2CCOCC2)n1` [Example 50, N-(4-methyl-3-(2-morpholino-6-(1,4-oxazepan-4-yl)pyrimidin-4-yl)phenyl)-3-(trifluoromethyl)benzamide] was 0.3 nM.
Consider `Cc1ccc(NC(=O)c2cccc(C(F)(F)F)c2)cc1-c1cc(N2CCOCC2)c(=O)n(C(C)C)c1` [Example 135, N-(3-(1-isopropyl-5-morpholino-6-oxo-1,6-dihydropyridin-3-yl)-4-methylphenyl)-3-(trifluoromethyl)benzamide], for which the IC50 came to 0.3 nM.
On the same count and under the same terms, the value for `Cc1ncc(NC(=O)c2cccc(C(F)(F)F)c2)cc1-c1cnc(OCC(F)F)c(N2CCOCC2)c1` [Example 227, N-(6′-(2,2-difluoroethoxy)-2-methyl-5′-morpholino-[3,3′-bipyridin]-5-yl)-3-(trifluoromethyl)benzamide] was 0.4 nM; that for `Cc1ccc(NC(=O)c2cccc(C(F)(F)F)c2)cc1-c1cn(C)c(=O)c(N2CCOCC2)n1` [Example 119, N-(4-methyl-3-(4-methyl-6-morpholino-5-oxo-4,5-dihydropyrazin-2-yl)phenyl)-3-(trifluoromethyl)benzamide] was 0.3 nM; that for `Cc1ncc(NC(=O)c2ccnc(C(C)(C)C#N)c2)cc1-c1cncc(N2CCOCC2)c1` [Example 297, 2-(2-cyanopropan-2-yl)-N-(2-methyl-5′-morpholino-[3,3′-bipyridin]-5-yl)isonicotinamide] was 3.6 nM.
Same read-out and setting: the value for `Cc1ncc(NC(=O)c2ccnc(C(F)(F)F)c2)cc1-c1cnc(OC2CCOCC2)c(N2CCOCC2)c1` [Example 314, N-(2-methyl-5′-morpholino-6′-((tetrahydro-2H-pyran-4-yl)oxy)-[3,3′-bipyridin]-5-yl)-2-(trifluoromethyl)isonicotinamide] was 1.6 nM.
Still for that read-out and setting: then `CCOc1ncc(-c2cc(C(=O)Nc3ccnc(C(F)(F)F)c3)ccc2C)cc1N1CCOCC1` [Example 306, 3-(6-ethoxy-5-morpholinopyridin-3-yl)-4-methyl-N-(2-(trifluoromethyl)pyridin-4-yl)benzamide], with 0.6 nM; and `CCOc1ncc(-c2cc(NC(=O)c3ccnc(C(F)F)c3)cnc2C)cc1N1CCOCC1` [Example 247, 2-(difluoromethyl)-N-(6′-ethoxy-2-methyl-5′-morpholino-[3,3′-bipyridin]-5-yl)isonicotinamide], with 0.6 nM.

The record behind these values is patent publication US9694016B2 (Novartis AG, priority 2013, dated 2017).
